The results in this text go back to patent publication US11090391B2, “Protein nanocages with enhanced mucus penetration for targeted tissue and intracellular delivery” (The Johns Hopkins University, priority 2016, dated 2021).

The series can be described thus: PEG surface density, fluorometric determination. As to conditions: reassembled FTn by % PEGylated protein. It is filed as physicochemical. As to the method: The solution was placed on a rotary incubator for 4 hours and then concentrated by centrifugation (Amicon Ultra-0.5 mL 30 K MWCO; Millipore). […] The density was fluorometrically determined (Suk J S, et al., Advanced Drug Delivery Reviews, 99(Pt A):28-51, Epub 2015).
The number of PEG chains per PEG-FTn was fluorometrically determined.
This was calculated with the following formula where D is the average diameter of PEG-FTn: [Γ]=PEG molecules÷[4π(D/2)^2].
The ratio [Γ/SA] of total unconstrained PEG surface coverage area [Γ] to total particle surface area [SA] determines the surface PEG conformation: low-density mushroom and high-density brush regimes when [Γ/SA]<1 and [Γ/SA]≥1, respectively (Xu Q, et al., ACS Nano, 9. 9217-9227 (2015); Auguste D T, Biomaterials, 27, 2599-2608 (2006)). Briefly, the surface area occupied by one unconstrained PEG chain was calculated by random-walk statistics and given by a sphere of diameter ξ: ξ=0.76 m^1/2[Å], where m is MW of PEG chain, and the surface area occupied by one PEG molecule can be determined by π(ξ/2)^2. Thus, the surface area occupied by unconstrained PEG of MWs 10, 5 and 2 kDa is 45, 23 and 9 nm^2, respectively. The total unconstrained PEG surface area coverage [Γ] was then calculated by multiplying the area occupied at the surface per PEG chain by the total number of PEG chains per protein nanocage. Thus, the [Γ/SA] ratio is 2.2±0.3, which falls in the dense brush regime.
Consider “% PEGylated protein 25: FTn reassembled with 25% PEG2k-PEGylated ferritin protein”, for which the PEG2k density is recorded as 0.11 #/nm^2.
With “% PEGylated protein 37.5: FTn reassembled with 37.5% PEG2k-PEGylated ferritin protein”, the PEG2k density is recorded as 0.16 #/nm^2.
The same measure for “% PEGylated protein 87.5: FTn reassembled with 87.5% PEG2k-PEGylated ferritin protein”: 0.37 #/nm^2.
